These results are taken from patent US11535610B2, “Acid addition salts of benzimidazole derivative” (HK INNO.N CORPORATION, priority 2016, dated 2022).

The conditions of this series: room temperature; supersaturation method; solubility of acid addition salt per se, not converted to free base.

Regarding Fumaric acid, the Water solubility amounted to 52 mg/mL.
